From patent publication US20190330224A1, “ACC INHIBITORS AND USES THEREOF” (Gilead Apollo, LLC, priority 2015, published 2019)

Chains of the proteins cited; added tags and fusions are not shown.
UniProt Q00955, whole entry: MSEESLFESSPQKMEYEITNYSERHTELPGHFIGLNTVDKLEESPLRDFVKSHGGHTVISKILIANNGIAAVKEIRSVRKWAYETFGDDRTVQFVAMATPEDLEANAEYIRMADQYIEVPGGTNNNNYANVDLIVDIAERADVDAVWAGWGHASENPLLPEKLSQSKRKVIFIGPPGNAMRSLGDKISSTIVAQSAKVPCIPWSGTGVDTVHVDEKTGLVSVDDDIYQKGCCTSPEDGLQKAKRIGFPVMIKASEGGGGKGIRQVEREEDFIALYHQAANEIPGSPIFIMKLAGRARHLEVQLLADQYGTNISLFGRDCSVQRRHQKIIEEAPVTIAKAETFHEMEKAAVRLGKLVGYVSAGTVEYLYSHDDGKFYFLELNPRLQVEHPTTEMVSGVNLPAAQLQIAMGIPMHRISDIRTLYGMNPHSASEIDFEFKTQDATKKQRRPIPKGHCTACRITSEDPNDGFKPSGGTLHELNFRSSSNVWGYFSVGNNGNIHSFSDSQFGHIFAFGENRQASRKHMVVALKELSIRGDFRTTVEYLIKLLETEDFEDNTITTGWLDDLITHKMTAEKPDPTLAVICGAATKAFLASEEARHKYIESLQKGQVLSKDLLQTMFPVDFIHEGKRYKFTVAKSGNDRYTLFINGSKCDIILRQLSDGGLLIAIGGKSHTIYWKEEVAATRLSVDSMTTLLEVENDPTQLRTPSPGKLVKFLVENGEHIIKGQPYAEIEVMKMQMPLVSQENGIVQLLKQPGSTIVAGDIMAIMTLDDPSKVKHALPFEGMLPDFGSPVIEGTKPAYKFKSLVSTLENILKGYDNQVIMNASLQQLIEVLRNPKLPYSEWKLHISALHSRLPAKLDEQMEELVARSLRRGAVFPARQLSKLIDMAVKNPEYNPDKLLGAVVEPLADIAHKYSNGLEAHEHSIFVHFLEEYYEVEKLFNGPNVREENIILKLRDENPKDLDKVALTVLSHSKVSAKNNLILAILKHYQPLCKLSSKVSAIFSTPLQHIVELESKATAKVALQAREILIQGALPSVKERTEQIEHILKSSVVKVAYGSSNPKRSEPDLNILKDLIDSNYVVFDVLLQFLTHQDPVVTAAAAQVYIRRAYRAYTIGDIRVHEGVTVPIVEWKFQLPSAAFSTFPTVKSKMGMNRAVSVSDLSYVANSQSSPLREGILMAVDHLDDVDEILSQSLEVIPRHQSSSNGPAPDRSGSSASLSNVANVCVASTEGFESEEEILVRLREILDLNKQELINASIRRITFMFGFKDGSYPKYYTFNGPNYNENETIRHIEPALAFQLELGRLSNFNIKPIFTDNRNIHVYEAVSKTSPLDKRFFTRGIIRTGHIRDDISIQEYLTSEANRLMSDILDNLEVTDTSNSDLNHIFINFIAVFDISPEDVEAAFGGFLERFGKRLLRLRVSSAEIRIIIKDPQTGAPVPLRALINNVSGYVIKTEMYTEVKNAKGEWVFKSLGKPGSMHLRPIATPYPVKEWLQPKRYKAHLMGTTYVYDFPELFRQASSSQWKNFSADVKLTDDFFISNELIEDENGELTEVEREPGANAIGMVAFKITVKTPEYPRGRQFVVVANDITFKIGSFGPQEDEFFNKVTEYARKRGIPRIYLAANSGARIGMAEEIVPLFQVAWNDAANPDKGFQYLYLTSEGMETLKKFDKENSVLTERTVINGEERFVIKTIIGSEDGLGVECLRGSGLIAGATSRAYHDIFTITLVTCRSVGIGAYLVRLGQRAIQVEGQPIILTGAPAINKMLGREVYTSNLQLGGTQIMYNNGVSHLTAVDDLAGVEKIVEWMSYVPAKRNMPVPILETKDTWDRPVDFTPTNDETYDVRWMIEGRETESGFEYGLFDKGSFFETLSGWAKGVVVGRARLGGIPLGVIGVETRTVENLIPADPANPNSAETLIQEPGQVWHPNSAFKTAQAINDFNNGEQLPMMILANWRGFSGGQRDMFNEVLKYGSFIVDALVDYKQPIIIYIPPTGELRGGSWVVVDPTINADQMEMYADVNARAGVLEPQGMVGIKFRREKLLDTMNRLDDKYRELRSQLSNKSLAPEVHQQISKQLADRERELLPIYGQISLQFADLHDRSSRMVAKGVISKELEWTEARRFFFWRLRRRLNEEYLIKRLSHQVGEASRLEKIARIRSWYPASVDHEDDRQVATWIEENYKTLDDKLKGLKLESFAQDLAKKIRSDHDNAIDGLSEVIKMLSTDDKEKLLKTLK

Molecular target: Fungal ACC2 (UniProt Q00955)
Settings: read-out: Fungal ACC2 (IC50, in vitro ACC2 inhibition)

COc1ccc(F)cc1[C@H](Cn1c(=O)n([C@H]2CCCNC2=O)c(=O)c2c(C)c(-n3nccn3)sc21)OC1CCOCC1 [Compound I-37, 1-((R)-2-(5-fluoro-2-methoxyphenyl)-2-((tetrahydro-2H-pyran-4-yl)oxy)ethyl)-5-methyl-3-((S)-2-oxopiperidin-3-yl)-6-(2H-1,2,3-triazol-2-yl)thieno[2,3-d]pyrimidine-2,4(1H,3H)-dione] and COc1ccc(F)cc1[C@H](Cn1c(=O)n([C@@H]2CCCNC2=O)c(=O)c2c(C)c(-n3nccn3)sc21)OC1CCOCC1 [Compound I-38, 1-((R)-2-(5-fluoro-2-methoxyphenyl)-2-((tetrahydro-2H-pyran-4-yl)oxy)ethyl)-5-methyl-3-((R)-2-oxopiperidin-3-yl)-6-(2H-1,2,3-triazol-2-yl)thieno[2,3-d]pyrimidine-2,4(1H,3H)-dione] fall in the same range of IC50: 0.7 to 2 nM for the first, 0.7 to 2 nM for the second.

First: COc1ccc(F)cc1[C@H](Cn1c(=O)n([C@@H]2CCCN(C)C2=O)c(=O)c2c(C)c(-c3ncco3)sc21)OCCO [Compound I-65, 1-((R)-2-(5-fluoro-2-methoxyphenyl)-2-(2-hydroxy-ethoxy)ethyl)-5-methyl-3-((R)-1-methyl-2-oxopiperidin-3-yl)-6-(oxazol-2-yl)thieno[2,3-d]pyrimidine-2,4(1H,3H)-dione]
Second: COc1ccc(F)cc1[C@H](Cn1c(=O)n([C@H]2CCCN(C(C)C)C2=O)c(=O)c2c(C)c(-n3nccn3)sc21)OCCO [Compound I-74, 1-((R)-2-(5-fluoro-2-methoxyphenyl)-2-(2-hydroxy-ethoxy)ethyl)-3-((S)-1-isopropyl-2-oxopiperidin-3-yl)-5-methyl-6-(2H-1,2,3-triazol-2-yl)thieno[2,3-d]pyrimidine-2,4(1H,3H)-dione]
The IC50 of the first is higher: 2 to 10 nM for the first, 0.7 to 2 nM for the second. The second is the more potent here.

COc1ccc(F)cc1[C@H](Cn1c(=O)n([C@@H]2CCCN(C(C)C)C2=O)c(=O)c2c(C)c(-n3nccn3)sc21)OCCO [Compound I-75, 1-((R)-2-(5-fluoro-2-methoxyphenyl)-2-(2-hydroxy-ethoxy)ethyl)-3-((R)-1-isopropyl-2-oxopiperidin-3-yl)-5-methyl-6-(2H-1,2,3-triazol-2-yl)thieno[2,3-d]pyrimidine-2,4(1H,3H)-dione] and COc1ccc(F)cc1[C@H](Cn1c(=O)n([C@H]2CCN(C(C)C)C2=O)c(=O)c2c(C)c(-n3nccn3)sc21)OCCO [Compound I-84, 1-((R)-2-(5-fluoro-2-methoxyphenyl)-2-(2-hydroxy-ethoxy)ethyl)-3-((S)-1-isopropyl-2-oxopyrrolidin-3-yl)-5-methyl-6-(2H-1,2,3-triazol-2-yl)thieno[2,3-d]pyrimidine-2.4(1H,3H)-dione] fall in the same range of IC50: 0.7 to 2 nM for the first, 0.7 to 2 nM for the second.

COc1ccc(F)cc1[C@H](Cn1c(=O)n([C@H]2CCCN(C(C)C)C2=O)c(=O)c2c(C)c(-n3nccn3)sc21)OC1CCOCC1 [Compound I-76, 1-((R)-2-(5-fluoro-2-methoxyphenyl)-2-((tetrahydro-2H-pyran-4-yl)oxy)ethyl)-3-((S)-1-isopropyl-2-oxopiperidin-3-yl)-5-methyl-6-(2H-1,2,3-triazol-2-yl)thieno[2,3-d]pyrimidine-2,4(1H,3H)-dione] and CCN1CC[C@@H](n2c(=O)c3c(C)c(-n4nccn4)sc3n(C[C@H](OC3CCOCC3)c3cc(F)ccc3OC)c2=O)C1=O [Compound I-151] fall in the same range of IC50: 0.7 to 2 nM for the first, 0.7 to 2 nM for the second.

COc1ccc(F)cc1[C@H](Cn1c(=O)n([C@@H]2CCN(C(C)C)C2=O)c(=O)c2c(C)c(-n3nccn3)sc21)OCCO [Compound I-85, 1-((R)-2-(5-fluoro-2-methoxyphenyl)-2-(2-hydroxy-ethoxy)ethyl)-3-((S)-1-isopropyl-2-oxopyrrolidin-3-yl)-5-methyl-6-(2H-1,2,3-triazol-2-1)thieno[2,3-d]pyrimidine-2,4(1H,3H)-dione] and COc1ccc(F)cc1[C@H](Cn1c(=O)n([C@@]2(C)CCC(=O)NC2)c(=O)c2c(C)c(-n3nccn3)sc21)OCCO [Compound I-135, 1-((R)-2-(5-fluoro-2-methoxyphenyl)-2-(2-hydroxy-ethoxy)ethyl)-5-methyl-3-((S)-3-methyl-6-oxopiperidin-3-yl)-6-(2H-1,2,3-triazol-2-yl)thieno[2,3-d]pyrimidine-2,4(1H,3H)-dione] fall in the same range of IC50: 0.7 to 2 nM for the first, 0.7 to 2 nM for the second.
